From US10370336B2, “Phenyl-cyanoquinolinone PDE9 inhibitors” (Merck Sharp & Dohme Corp., priority 2015, dated 2019)

Sequences of proteins named here, by UniProt entry; tags and fusion partners are left off. A line that says so, or that is headed by a name, gives the form on record, which may keep a tag or linker.
UniProt O76083, other isoform, or with tags, fused parts or gaps: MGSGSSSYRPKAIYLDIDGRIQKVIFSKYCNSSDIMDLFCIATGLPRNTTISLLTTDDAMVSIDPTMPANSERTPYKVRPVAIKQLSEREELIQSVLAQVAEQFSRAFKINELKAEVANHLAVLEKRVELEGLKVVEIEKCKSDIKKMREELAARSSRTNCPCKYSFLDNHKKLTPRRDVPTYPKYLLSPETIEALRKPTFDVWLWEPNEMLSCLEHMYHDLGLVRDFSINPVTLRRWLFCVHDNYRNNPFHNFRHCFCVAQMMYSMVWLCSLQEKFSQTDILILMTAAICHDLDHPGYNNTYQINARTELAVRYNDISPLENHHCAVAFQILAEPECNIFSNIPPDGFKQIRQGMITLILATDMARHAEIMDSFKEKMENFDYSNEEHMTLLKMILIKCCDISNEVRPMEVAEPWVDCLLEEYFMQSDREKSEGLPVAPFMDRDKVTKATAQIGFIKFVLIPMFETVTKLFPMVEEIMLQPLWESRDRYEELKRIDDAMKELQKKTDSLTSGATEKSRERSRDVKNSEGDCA

Target: human PDE9 enzyme (PDE9A2) (Homo sapiens (Human), UniProt O76083)
Assay: biochemical

- Ki: 444 nM
Structure (SMILES): CCc1ccc(-c2c(C)c(=O)[nH]c3ccccc23)cc1 [Example 1-14, 4-(4-Ethylphenyl)-3-methylquinolin-2(1H)-one]
